Earlier results, collected in patent publication US9119805B2, “Therapy and prevention of problem drinking” (THE UNIVERSITY OF SYDNEY, priority 2009, dated 2015).

By UniProt entry, the sequences of proteins in these tests, tags left out. Where a name states a change or a piece, a line headed by the entry shows the natural chain unless it says otherwise.
UniProt P30559: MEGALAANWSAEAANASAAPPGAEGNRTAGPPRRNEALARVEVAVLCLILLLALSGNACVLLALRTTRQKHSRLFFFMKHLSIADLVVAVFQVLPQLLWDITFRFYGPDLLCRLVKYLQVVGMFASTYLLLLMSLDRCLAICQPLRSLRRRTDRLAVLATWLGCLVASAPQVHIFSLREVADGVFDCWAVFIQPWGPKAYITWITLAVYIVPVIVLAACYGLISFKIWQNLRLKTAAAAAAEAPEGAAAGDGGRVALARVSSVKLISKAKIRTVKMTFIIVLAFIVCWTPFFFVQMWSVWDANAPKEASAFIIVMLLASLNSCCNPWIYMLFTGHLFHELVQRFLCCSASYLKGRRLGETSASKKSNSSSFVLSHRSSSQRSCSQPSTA

Biological target: oxytocin receptor (Homo sapiens, UniProt P30559)
Conditions: cited from earlier work

Compound: Cc1cc(C(=O)N2Cc3cnn(C)c3Nc3ccccc32)ccc1CNC(=O)N1CCN(Cc2cc(O)cc(O)c2)CC1 [WAY-267,464]
- affinity, potency and selectivity at the oxytocin receptor: high-affinity, potent and selective non-peptide agonist
